What was measured:
[1] = target: cell-surface glycoprotein (csg), S-layer protein of Haloferax volcanii (Haloferax volcanii) (UniProt P25062); experiment: cryo-EM structure; cryo-ET and subtomogram averaging of the native S-layer on vesicles purified from H. volcanii cultures; hexamer 8.0 Å, pentamer 11.5 Å
[2] = target: cell-surface glycoprotein (csg), S-layer protein of Haloferax volcanii (Haloferax volcanii) (UniProt P25062); experiment: cryo-EM structure; cryo-ET and subtomogram averaging (lattice maps) of the S-layer on whole H. volcanii cells
[3] = target: cell-surface glycoprotein (csg), S-layer protein of Haloferax volcanii (Haloferax volcanii) (UniProt P25062); experiment: cryo-EM structure; cryo-ET and subtomogram averaging of the native S-layer on vesicles purified from H. volcanii cultures; hexamer 8.0 Å, pentamer 11.5 Å; remark: listed apart in the source
[4] = target: cell-surface glycoprotein (csg), S-layer protein of Haloferax volcanii (Haloferax volcanii) (UniProt P25062); experiment: cryo-EM structure; single-particle cryo-EM of two-dimensional S-layer sheets reconstituted from purified csg (3.2 mg/mL) with 15 mM CaCl2, on ice 25 min; 3.5 Å; hexameric repeating unit and lattice interfaces
[5] = target: cell-surface glycoprotein (csg), S-layer protein of Haloferax volcanii (Haloferax volcanii) (UniProt P25062); experiment: cryo-EM structure; single-particle cryo-EM of csg pentamers reconstituted from purified csg (2.5 mg/mL) with 1.5-1.75 mM HoCl3, on ice 2 hours; 3.9 Å
[6] = target: cell-surface glycoprotein (csg), S-layer protein of Haloferax volcanii (Haloferax volcanii) (UniProt P25062); experiment: cryo-EM structure; cryo-ET and subtomogram averaging of in vitro reconstituted inverted S-layer tubes (purified csg with 15 mM CaCl2); 15.8 Å

- stoichiometry N [1]: 6
- stoichiometry N [2]: 5
- stoichiometry N [3]: 5
- stoichiometry N [4]: 6
- stoichiometry N [5]: 5
- stoichiometry N [6]: 6
Substance: cell-surface glycoprotein (csg), S-layer protein of Haloferax volcanii (from UniProt P25062 35-803) (natural protein)
